In patent publication US5830885A, “Antiproliferative vitamin D3 hybrids” (The Johns Hopkins University, priority 1996, dated 1998):

Test system: U 937 cancer cells
Test: Inhibition of cell proliferation in U 937 cancer cells (Table 5)
Format: cell-based
Conditions: Homo sapiens, U-937, read-out: Inhibition of cell proliferation IC50

Question: For `C=C1/C(=C\C=C2/CCC[C@]3(C)[C@@H]([C@H](C)CCCC(C)(C)O)CC[C@@H]23)C[C@@H](O)C[C@@H]1O` [Calcitriol, 1α,25-dihydroxyvitamin D3, reference compound], which IC50 is on record?
Answer: Its IC50 is 20 nM.
